# scFv variants of Ab-95 (light chain) against a SARS-CoV-2 spike peptide

Values reported by Engelhart et al. 2022, doi:10.1038/s41597-022-01779-4 (FLAb copy).

Binding partner: SARS-CoV-2 spike HR2 peptide, sequence PDVDLGDISGINAS.

Ab-95 is the parent antibody, in scFv form: VH, then three GGGGS repeats, then VL. The heavy chain is unchanged in all variants.
VH: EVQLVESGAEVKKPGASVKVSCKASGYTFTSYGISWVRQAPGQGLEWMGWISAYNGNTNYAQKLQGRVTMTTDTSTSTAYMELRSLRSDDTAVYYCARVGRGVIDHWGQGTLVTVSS
VL: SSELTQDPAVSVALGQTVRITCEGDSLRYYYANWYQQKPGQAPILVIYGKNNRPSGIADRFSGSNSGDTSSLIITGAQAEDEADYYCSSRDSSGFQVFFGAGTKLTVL

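The parent was found by panning a naive human phage display library on the peptide. Library AAYL52 holds single substitutions and randomly drawn double and triple substitutions in the CDRs. AlphaSeq pools MATa yeast showing the antibodies with MATalpha yeast showing the peptide. Binding brings cells together so that they mate, and sequencing counts the barcode pairs among the diploids. Scores were corrected for input abundance and mapped to Kd with protein pairs of known affinity run in the same pool. There are three technical replicates.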

The parent's light chain CDRs are EGDSLRYYYAN, GKNNRPS, SSRDSSGFQVF; each variant's own CDRs replace them letter for letter. Values are log10 of the apparent Kd in nM; lower means stronger binding. A pair that was not seen in that replicate is written "ND"; this usually means weak binding, but a binder can also be missed. In this assay the parent's reference entry averaged 2.31; its copy inside this library read 2.25. Background: pairings of library AAYL52 with three empty control strains gave a value in 28% of cases (median 3.91, 5th percentile 2.90). Values in that range, when seen in few replicates, are hard to tell from nonspecific mating. For each scFv, signals with the empty controls are counted beside the result, with their mean in brackets.

CDR-L1,CDR-L2,CDR-L3,"log10 Kd, replicates",control signals
EGDSVRYYYIN,GKNNRPS,SSQDSSGFQVF,4.96 ND 4.37,3/9 (4.51)
EGDSLRYYQAN,GKNNRPS,SSRDSSYFQVF,1.48 1.34 0.79,3/9 (3.40)
EGDSLRMYKAN,GKNNRPS,SSRDSSGFQTF,ND ND ND,0/9
EGDSLRYYYAN,GKGNRPS,SSRDSWGFQIF,4.14 ND ND,4/9 (3.10)
EGDSLNYYYAN,GKNNGPS,SSRDSSGFQMF,ND 5.84 ND,1/9 (4.23)
EGDSLEYYYAN,GKNNRPS,SSRDSSMFCVF,2.24 2.42 2.86,4/9 (3.77)
LGDSLRYYYAN,GKNNRPT,SSRDASGFQVF,2.35 2.38 2.12,5/9 (4.52)
EGDSLRAYYAN,GKNTQPS,SSRDSSGFQVF,ND 4.97 ND,2/9 (4.44)
KGDSLQYYYAN,GKLNRPS,SSRDSSGFQVF,2.92 2.50 2.44,5/9 (3.59)
EGDSLRYYYNN,GKNRRPG,SSRDSSGFQVF,3.61 3.44 4.28,3/9 (4.00)
EGDSLRYYYIF,GKNNRLS,SSRDSSGFQVF,ND ND ND,0/9
EGDSLRAYYAN,GCNNLPS,SSRDSSGFQVF,4.84 4.73 ND,4/9 (3.78)
EGDSLRYYYAN,GKNNRPS,SSPFSSQFQVF,3.75 4.05 4.14,6/9 (4.09)
EGDSLRYYWAN,GKNNRPS,STRDSSGFQDF,4.29 ND 3.44,1/9 (4.81)
EGDSLRYYYTN,GKNQRPS,SSRDSVGFQVF,2.27 2.99 2.46,4/9 (4.33)
EGDSLRYYYQS,GKNNRPS,SSRDSSGFQVF,2.76 3.13 2.76,4/9 (4.46)
EGDSLRYYYAN,GKNNRLR,SSRDSSGFQVF,3.66 4.47 3.81,0/9
EGDSLRYYYAN,GKNNRPS,SSTDSSGFCVM,4.55 ND ND,1/9 (3.31)
EGSSLTYYYAN,GKNNRPS,SKRDSSGFQVF,3.31 ND ND,1/9 (3.30)
EVDELRYYYAN,GKNNRPS,SSRDSSGFNVF,3.05 3.45 2.19,2/9 (4.55)
EQHSLRYYYAN,GKNNRPS,SSRDSSGFQVI,ND 4.45 3.06,4/9 (4.27)
EGDSLRYYYAN,PYNNRPS,SSRDSRGFQVF,4.64 ND 4.16,1/9 (4.45)
EPDSLRYYYAN,GKNNRPS,SSRDSFGFQVF,5.33 ND ND,1/9 (4.10)
EGDSLRYYYAN,GKNERPS,SSRDSGHFQVF,2.74 ND 3.48,0/9
EGDSLRYTYAA,GKNNRPS,SSRDFSGFQVF,2.95 3.29 3.40,4/9 (3.91)
EGDRNRYYYAN,GKNNRPS,SSRDSSGFQLF,3.59 4.50 ND,4/9 (4.08)
EGDKLRPYYAN,GKNNRPS,SSRDSSGFYVF,3.68 3.27 ND,3/9 (3.79)
EGDSLRYYYAN,GKNNRPV,SSIDSSGFQPF,3.82 2.98 2.72,3/9 (4.94)
EWDSLRYYYAW,GKWNRPS,SSRDSSGFQVF,ND 3.66 ND,1/9 (3.71)
EGDSLIYYYAN,GKNNRPS,SERDSSGTQVF,4.14 3.54 ND,2/9 (4.00)
EGDSLRYYYMN,GWNNRPS,SSRDSSIFQVF,ND ND ND,1/9 (4.05)
EGDSLRYYYAN,GKNRRPT,SSRDSSGMQVF,3.38 3.73 3.72,6/9 (4.29)
EGDSLRYYYAN,GKNNRPS,SSRDSTGEQVF,2.57 2.21 2.83,2/9 (3.52)
EGDSLRYYYAN,GKNNRPS,SPKDSSPFQVF,5.06 4.62 ND,2/9 (3.72)
EGDGLWYYYAN,GKNNRPS,SSRDSSGYQVF,2.75 3.53 2.82,2/9 (4.10)
EGDSLRYYYAN,NDNNRPS,SSRDSSSFQVF,3.91 5.54 ND,2/9 (4.20)
EGDSLRYYYAN,GKPNRPS,SSRDHSGFQHF,ND ND ND,0/9

Repeated from above, the 3 best binders with a signal in all replicates:

CDR-L1,CDR-L2,CDR-L3,"log10 Kd, replicates",control signals
EGDSLRYYQAN,GKNNRPS,SSRDSSYFQVF,1.48 1.34 0.79,3/9 (3.40)
LGDSLRYYYAN,GKNNRPT,SSRDASGFQVF,2.35 2.38 2.12,5/9 (4.52)
EGDSLEYYYAN,GKNNRPS,SSRDSSMFCVF,2.24 2.42 2.86,4/9 (3.77)